Reference: publication PMC7570544, “Biological Activities and ADMET-Related Properties of Novel Set of Cinnamanilides” (Molecules, 2020)

Legend:
[1] = Lipophilicity determination by RP-TLC; type: physicochemical; design: key to RM (MeOH:H2O): RM = log(1/RF - 1), from RP-18 TLC
Method: RM values were determined from the RP-18 TLC measurements. The solutions of compounds in Metanol Chromasolv^TM (Honeywell) were spotted on a RP-TLC plate (Silica gel Nano-SIL C18-100 UV 254, 10 × 10 cm, Macherey-Nagel, Duren, Germany), 1.5 cm from the edge. The volatiles were carefully evaporated, and the plate was developed by MeOH (100%) or MeOH: H2O-HPLC (72:28 v/v) or MeOH: NaOAc buffer, pH 7.4 (72:28 v/v). After drying, the spots were visualized under UV (λ = 365 nm). RM data were obtained from equation: RM = log(1/RF-1). Each experiment was repeated three times.

[2] = physchem

O=C(/C=C/c1ccccc1)Nc1ccccc1 [Compound 1, (2E)-N-Phenyl-3-phenylprop-2-enamide]
RM (100% MeOH) [1]: −0.5087 | RM (MeOH:H2O) [1]: 0.2848 | RM (pH 7.4) ([1]; pH 7.4): 0.4038 | chromatographic logD ([2]; pH 6.5): 0.109 | chromatographic logD ([2]; pH 7.4): 0.125
